Key:
Acetylcholinesterase [1] = target: Acetylcholinesterase (Homo sapiens, UniProt P22303); experiment: Concentration required to inhibit 50% of acetylcholinesterase (AChE) in human erythrocyte(RBC).
Acetylcholinesterase [2] = target: T1, Acetylcholinesterase (Electrophorus electricus, UniProt O42275); experiment: Inhibition of eel acetylcholinesterase (AChE) activity by 50%
Acetylcholinesterase [3] = target: Acetylcholinesterase (Bos taurus, UniProt P23795); experiment: Inhibition of acetylcholinesterase (AChE) in bovine erythrocyte(RBC)
[4] = target: T2, Muscarinic acetylcholine receptor (UniProt P12657+P32211+Q920H4+Q9ERZ3+Q9ERZ4); experiment: Compound was tested for the binding affinity towards muscarinic acetylcholine receptor in mouse brain membrane
Acetylcholinesterase [5] = target: T1, Acetylcholinesterase; experiment: Compound was tested for the competitive inhibition of phosphorylation of Eel acetylcholinesterase (AChE)
[6] = target: T2, Muscarinic acetylcholine receptor; experiment: Compound was tested for the binding affinity towards muscarinic receptor in mouse brain membrane

Protein sequences, listed by entry. Tags and fused reporters are not part of them. Lines headed by an entry give the natural chain unless they say otherwise; changes in a name come on top. Residues count along the entry.
UniProt P22303, 32-614 limits assumed: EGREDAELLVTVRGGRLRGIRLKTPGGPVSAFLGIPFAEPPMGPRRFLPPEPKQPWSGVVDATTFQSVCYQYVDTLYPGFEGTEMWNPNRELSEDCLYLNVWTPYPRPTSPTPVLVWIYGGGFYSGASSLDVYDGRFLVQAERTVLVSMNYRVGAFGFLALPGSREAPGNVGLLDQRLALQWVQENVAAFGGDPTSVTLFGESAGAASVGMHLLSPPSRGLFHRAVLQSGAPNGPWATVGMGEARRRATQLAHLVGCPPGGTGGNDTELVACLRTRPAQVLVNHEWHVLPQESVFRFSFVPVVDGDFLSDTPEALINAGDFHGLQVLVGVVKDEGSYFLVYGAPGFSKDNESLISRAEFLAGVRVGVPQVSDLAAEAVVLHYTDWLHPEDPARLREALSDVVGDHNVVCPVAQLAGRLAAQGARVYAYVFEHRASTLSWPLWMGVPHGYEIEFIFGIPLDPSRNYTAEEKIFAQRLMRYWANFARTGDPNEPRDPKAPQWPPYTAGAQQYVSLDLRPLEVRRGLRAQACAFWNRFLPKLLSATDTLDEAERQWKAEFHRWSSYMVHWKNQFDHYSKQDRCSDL
UniProt O42275, 24-633 limits assumed: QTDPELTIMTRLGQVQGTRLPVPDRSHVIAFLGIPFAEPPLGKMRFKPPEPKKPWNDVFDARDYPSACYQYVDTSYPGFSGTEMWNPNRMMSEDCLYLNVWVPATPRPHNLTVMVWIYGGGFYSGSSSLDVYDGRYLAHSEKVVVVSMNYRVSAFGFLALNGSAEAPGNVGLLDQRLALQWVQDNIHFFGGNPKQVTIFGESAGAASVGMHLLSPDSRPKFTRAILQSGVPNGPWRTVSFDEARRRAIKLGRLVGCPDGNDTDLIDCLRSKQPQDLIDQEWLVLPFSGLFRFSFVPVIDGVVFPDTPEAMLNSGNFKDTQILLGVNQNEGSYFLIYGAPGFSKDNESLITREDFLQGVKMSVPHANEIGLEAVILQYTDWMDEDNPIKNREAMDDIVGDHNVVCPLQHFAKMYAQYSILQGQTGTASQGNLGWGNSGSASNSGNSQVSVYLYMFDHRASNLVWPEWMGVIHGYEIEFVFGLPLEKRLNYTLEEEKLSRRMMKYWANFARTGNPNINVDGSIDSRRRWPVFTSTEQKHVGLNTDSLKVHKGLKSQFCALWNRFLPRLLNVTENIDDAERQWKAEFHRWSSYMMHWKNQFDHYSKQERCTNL
UniProt P23795, 31-613 limits assumed: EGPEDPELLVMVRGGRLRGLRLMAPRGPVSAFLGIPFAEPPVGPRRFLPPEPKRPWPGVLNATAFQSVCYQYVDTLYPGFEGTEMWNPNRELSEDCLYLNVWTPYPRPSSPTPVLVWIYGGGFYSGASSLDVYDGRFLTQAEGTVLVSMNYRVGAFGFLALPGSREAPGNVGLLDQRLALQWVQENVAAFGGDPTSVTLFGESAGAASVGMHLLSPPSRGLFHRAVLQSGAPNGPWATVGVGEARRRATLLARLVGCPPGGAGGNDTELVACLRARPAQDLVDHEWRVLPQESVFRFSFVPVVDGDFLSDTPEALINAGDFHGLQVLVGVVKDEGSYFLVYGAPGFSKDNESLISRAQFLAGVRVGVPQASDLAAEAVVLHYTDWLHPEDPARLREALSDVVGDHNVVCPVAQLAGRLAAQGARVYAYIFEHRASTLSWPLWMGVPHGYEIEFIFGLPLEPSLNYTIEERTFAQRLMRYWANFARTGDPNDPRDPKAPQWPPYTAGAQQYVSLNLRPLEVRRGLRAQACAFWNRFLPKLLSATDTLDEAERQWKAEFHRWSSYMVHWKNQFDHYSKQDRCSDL
UniProt P12657: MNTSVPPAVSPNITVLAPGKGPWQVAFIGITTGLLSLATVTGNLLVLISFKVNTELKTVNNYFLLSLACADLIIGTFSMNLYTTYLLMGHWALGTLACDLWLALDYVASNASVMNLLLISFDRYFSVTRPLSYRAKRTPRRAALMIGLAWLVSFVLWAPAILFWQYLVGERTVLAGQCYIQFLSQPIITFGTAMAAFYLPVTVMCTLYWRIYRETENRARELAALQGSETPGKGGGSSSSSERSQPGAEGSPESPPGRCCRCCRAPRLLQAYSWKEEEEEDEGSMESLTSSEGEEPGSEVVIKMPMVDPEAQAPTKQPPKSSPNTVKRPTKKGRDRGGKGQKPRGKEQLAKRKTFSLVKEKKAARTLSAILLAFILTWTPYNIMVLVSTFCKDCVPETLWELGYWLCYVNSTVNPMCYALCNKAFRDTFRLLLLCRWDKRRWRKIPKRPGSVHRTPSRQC
UniProt P32211: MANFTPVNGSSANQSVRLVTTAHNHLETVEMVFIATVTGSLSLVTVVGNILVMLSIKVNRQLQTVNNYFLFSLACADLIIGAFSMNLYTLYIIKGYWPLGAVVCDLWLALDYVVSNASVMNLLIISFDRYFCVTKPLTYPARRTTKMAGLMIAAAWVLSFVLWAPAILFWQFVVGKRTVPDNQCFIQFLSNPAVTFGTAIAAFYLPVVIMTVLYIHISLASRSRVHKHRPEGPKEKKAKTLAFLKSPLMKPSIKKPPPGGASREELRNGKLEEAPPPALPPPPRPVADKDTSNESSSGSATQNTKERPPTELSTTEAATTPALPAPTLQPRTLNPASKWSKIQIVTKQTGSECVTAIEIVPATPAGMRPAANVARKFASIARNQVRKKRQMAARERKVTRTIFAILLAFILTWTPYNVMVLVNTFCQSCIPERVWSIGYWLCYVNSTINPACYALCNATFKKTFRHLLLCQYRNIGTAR
UniProt Q920H4: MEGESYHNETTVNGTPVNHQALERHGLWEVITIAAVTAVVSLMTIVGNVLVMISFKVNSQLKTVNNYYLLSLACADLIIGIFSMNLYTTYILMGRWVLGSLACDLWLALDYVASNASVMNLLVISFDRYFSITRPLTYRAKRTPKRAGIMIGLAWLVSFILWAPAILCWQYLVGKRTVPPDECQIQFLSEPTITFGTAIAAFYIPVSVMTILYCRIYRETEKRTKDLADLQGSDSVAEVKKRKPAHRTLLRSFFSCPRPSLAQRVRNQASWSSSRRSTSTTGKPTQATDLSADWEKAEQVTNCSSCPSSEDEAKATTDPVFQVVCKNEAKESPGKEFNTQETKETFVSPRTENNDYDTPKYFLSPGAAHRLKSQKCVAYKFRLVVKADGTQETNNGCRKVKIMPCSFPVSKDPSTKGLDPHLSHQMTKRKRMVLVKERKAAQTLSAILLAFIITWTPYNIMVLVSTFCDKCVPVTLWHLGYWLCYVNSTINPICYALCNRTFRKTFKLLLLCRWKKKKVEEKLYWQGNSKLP
UniProt Q9ERZ3: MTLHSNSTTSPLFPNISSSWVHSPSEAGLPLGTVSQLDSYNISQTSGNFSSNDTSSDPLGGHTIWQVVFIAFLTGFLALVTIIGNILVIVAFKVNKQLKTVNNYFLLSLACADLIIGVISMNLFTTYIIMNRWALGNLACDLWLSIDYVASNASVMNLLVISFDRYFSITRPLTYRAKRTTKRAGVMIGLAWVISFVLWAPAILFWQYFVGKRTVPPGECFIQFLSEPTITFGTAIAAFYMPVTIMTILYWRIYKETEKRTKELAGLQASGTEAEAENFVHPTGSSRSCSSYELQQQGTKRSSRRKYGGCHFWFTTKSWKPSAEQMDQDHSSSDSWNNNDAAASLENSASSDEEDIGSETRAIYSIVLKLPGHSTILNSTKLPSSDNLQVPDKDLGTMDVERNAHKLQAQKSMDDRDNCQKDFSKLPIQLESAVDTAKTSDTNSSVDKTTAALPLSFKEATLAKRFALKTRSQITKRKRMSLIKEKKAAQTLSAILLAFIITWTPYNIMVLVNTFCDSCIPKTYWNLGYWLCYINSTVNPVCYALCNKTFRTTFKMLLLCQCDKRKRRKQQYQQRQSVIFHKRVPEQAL
UniProt Q9ERZ4: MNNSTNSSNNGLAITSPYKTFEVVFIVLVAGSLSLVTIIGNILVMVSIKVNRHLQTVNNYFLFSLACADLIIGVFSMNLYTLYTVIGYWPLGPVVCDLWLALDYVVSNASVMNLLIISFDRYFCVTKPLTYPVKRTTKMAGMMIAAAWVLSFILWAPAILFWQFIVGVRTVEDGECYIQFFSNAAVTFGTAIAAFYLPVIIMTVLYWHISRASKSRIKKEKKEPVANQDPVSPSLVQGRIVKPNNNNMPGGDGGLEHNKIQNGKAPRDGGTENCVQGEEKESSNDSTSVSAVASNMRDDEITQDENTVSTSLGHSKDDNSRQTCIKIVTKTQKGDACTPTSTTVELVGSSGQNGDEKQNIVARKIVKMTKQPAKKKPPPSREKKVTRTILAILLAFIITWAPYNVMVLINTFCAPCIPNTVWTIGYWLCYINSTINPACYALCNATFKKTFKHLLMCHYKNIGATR

| Compound | IC50 (Acetylcholinesterase [1]) | IC50 (Acetylcholinesterase [2]) | IC50 (Acetylcholinesterase [3]) | also measured |
| --- | --- | --- | --- | --- |
| CCC(OC[n+]1ccn(C)c1/C=N/O)C(C)(C)C (stereo not drawn) | 24 µM | – | – | – |
| Cn1c(/C=N/O)[n+](C)c2ccccc21 | – | 45 µM | – | – |
| CCCCCCCCOC[n+]1ccn(C)c1/C=N/O | 9.5 µM | 7 µM | 11 µM | – |
| CC(OC[n+]1ccn(C)c1/C=N/O)C(C)(C)C.[Cl-] (stereo not drawn) | – | – | – | IC50 [4]: 80 µM |
| CC(OC[n+]1ccn(C)c1/C=N/O)C1CCCCC1 (stereo not drawn) | 26 µM | – | – | – |
| Cn1cc[n+](COCc2cccc3ccccc23)c1/C=N/O | 3.8 µM | 7 µM | 4.2 µM | Ki (Acetylcholinesterase [5]): 3.5 µM |
| Cn1cc[n+](COCCCc2ccccc2)c1/C=N/O.[Cl-] | – | – | – | IC50 [6]: 22 µM |
| CC(OC[n+]1ccn(C)c1/C=N/O)C(C)(C)C (stereo not drawn) | 11.5 µM | 16 µM | 19 µM | Ki (Acetylcholinesterase [5]): 7.6 µM |
| Cn1cc[n+](COC[n+]2ccccc2/C=N/O)c1/C=N/O | 38 µM | 12 µM | – | – |
| Cn1cc[n+](COCC2CCCc3ccccc32)c1/C=N/O (stereo not drawn) | 56 µM | – | – | – |
| CCCCOC[n+]1ccn(C)c1/C=N/O | 27.5 µM | 20 µM | 42 µM | – |
| Cn1cc[n+](COCC2CCCCC2)c1/C=N/O | 42 µM | – | – | – |
| CCCCCCOC[n+]1ccn(C)c1/C=N/O | 25 µM | – | – | – |
| Cn1cc[n+](COCc2cccc3ccccc23)c1/C=N/O.[Cl-] | – | – | – | IC50 [6]: 35 µM |
| Cn1cc[n+](COC[n+]2ccn(C)c2/C=N/O)c1/C=N/O | 7.8 µM | 3 µM | – | – |
| Cn1cc[n+](COCCCc2ccccc2)c1/C=N/O | 21.2 µM | 15 µM | 30 µM | Ki (Acetylcholinesterase [5]): 4 µM |
| Cc1n(C)cc[n+]1COC(C)C(C)(C)C (stereo not drawn) | 33 µM | – | – | – |
| CC(C)OC[n+]1ccn(C)c1/C=N/O | 49 µM | 80 µM | 48 µM | – |
| CC(CC(C)(C)C)OC[n+]1ccn(C)c1/C=N/O (stereo not drawn) | 32.5 µM | – | – | – |
| Cn1cc[n+](COCC(C)(C)C)c1/C=N/O | 8.4 µM | 12 µM | 9.4 µM | – |
| Cn1cc[n+](COCc2ccccc2)c1/C=N/O | 56 µM | 50 µM | 62 µM | – |
| COC[n+]1ccn(C)c1/C=N/O | – | – | – | Ki (Acetylcholinesterase [5]): 48 µM |
